One test concerns the target BLM^636–1298 (Homo sapiens, UniProt P54132). As to the kind of experiment: Gel-based DNA unwinding assay, forked duplex, truncated BLM. It counts as biochemical.
For a further test, the target named is BLM (Homo sapiens, UniProt P54132). As to the kind of experiment: ssDNA-dependent ATPase activity of BLM. The test is classed as biochemical.

By UniProt entry, the sequences of proteins in these tests, tags left out. Residues count along the entry.
UniProt P54132, 636-1298: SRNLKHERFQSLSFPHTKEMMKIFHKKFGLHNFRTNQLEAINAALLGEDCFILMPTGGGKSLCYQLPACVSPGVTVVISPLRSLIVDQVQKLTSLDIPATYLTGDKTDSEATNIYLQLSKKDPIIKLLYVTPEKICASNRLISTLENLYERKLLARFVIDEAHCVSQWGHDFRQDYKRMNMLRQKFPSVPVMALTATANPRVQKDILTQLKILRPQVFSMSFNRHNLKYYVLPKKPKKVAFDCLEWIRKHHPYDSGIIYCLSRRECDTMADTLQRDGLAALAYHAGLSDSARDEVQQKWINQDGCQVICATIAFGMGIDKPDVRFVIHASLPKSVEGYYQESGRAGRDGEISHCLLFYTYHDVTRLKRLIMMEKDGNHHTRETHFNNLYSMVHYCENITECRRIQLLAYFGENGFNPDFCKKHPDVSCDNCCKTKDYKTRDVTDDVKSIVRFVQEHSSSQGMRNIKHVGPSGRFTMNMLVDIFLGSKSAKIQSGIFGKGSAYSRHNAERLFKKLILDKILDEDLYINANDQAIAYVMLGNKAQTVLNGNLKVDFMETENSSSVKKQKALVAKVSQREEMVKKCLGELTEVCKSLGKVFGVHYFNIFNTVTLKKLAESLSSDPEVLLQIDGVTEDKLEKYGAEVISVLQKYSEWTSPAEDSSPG

In general, IC50 refers to the concentration that inhibits the measured activity by half. One may read the Ki as the equilibrium dissociation constant of an inhibitor or competing ligand from its target.

Molecules are shown by their SMILES.

For the compound `O=C(Nc1ccc(F)c(C(F)(F)F)c1)Nc1nnc(-c2ccncc2)s1` [ML216], it took 970 nM to reach half-maximal inhibition against BLM^636–1298 (IC50). Also, the inhibition constant (Ki) on BLM came out at 1760 ± 260 nM.

The values above are taken from PMC3558928 (Chemistry & biology, 2013).
